Where two headings read alike, the source gives them in different places.
B1: Escherichia coli single-stranded DNA binding protein (SSB) (natural protein, E. coli, UniProt P0AGE0 1-178, looked up)
chain: MASRGVNKVILVGNLGQDPEVRYMPNGGAVANITLATSESWRDKATGEMKEQTEWHRVVLFGKLAEVASEYLRKGSQVYIEGQLRTRKWTDQSGQDRYTTEVVVNVGGTMQMLGGRQGGGAPAGGNIGGGQPQGGWGQPQQPQGGNQFSGGAQSRPQQSAPAAPSNEPPMDFDDDIPF

Columns and labels:
Test in all cases: ITC
[1] = biological target: T1, PriA DNA helicase (E. coli, UniProt P17888)
[2] = biological target: T1, PriA DNA helicase; remark: listed apart in the source
[3] = biological target: T1, PriA DNA helicase; remark: listed apart in the source
[4] = biological target: T1, PriA DNA helicase; remark: listed apart in the source
[5] = biological target: B1
[6] = biological target: B1; remark: listed apart in the source

Binder | Ka [1] [M⁻¹] | Ka [2] [M⁻¹] | Ka [3] [M⁻¹] | Ka [4] [M⁻¹] | Ka [5] [M⁻¹] | dH [5] [kcal/mol] | stoichiometry N [5] | Ka [6] [M⁻¹] | dH [6] [kcal/mol] | stoichiometry N [6]
B1 | 2.2e+07 | 1.8e+06 | 7.1e+07 | 1e+06 |  |  |  |  |  | 
χ subunit of the DNA polymerase III holoenzyme (natural protein, E. coli, UniProt P28905 1-147, looked up) MKNATFYLLDNDTTVDGLSAVEQLVCEIAAERWRSGKRVLIACEDEKQAYRLDEALWARPAESFVPHNLAGEGPRGGAPVEIAWPQKRSSSRRDILISLRTSFADFATAFTEVVDFVPYEDSLKQLARERYKAYRVAGFNLNTATWK |  |  |  |  | 450000 | -7.7 | 2.8 | 6.1e+06 | -9 | 4.2

— PMC2583361 (Critical reviews in biochemistry and molecular biology, 2008)
